PubChem BioAssay AID750 (Sanford-Burnham Center for Chemical Genomics, 2007)
This is a selection; strong and weak results do not stand in their true shares. Active and inactive are the calls of the source.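 How the source made its calls: active means activation factor of at least 2 for MT1-MMP transcription at 10 µM; inactive means the rest.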

Assay: MT1-MMP promoter reporter activation – cell-based, luciferase luminescence, primary screen (AID 750)
Details: HT1080 MT1-MMP promoter luciferase reporter, overnight, at 10 µM, stronger effect = higher value
For `O=C(NCC1(N2CCOCC2)CCCCC1)c1cc2ccccc2o1`, the activation factor was inactive: 1.2. For `O=C(OC1CN2CCC1CC2)C1c2ccccc2Oc2ccccc21` (stereo not given), the activation factor was inactive: 1.1. In the case of `COc1ccc(NC2CCN(CCc3ccccc3)CC2)c(OC)c1`, the activation factor was inactive: 1.1. In the case of `N#CC1(Nc2ccccc2)CCN(CCc2ccccc2)CC1`, the activation factor was inactive: 1.2. In the case of `O=C(NCC1(N2CCOCC2)CCCCC1)c1cc(=O)[nH]c2ccccc12`, the activation factor was inactive: 1.2. In the case of `N/C(=N\O)c1c(N)no[n+]1[O-]`, the activation factor was inactive: 1. With `c1ccc(CN2CCC(Nc3ccccc3)CC2)cc1` the activation factor was inactive: 1. With `Fc1ccccc1NC1CCN(Cc2ccccc2)CC1` the activation factor was inactive: 1.1. With `CCOc1ncccc1C(=O)NCC1(N2CCOCC2)CCCCC1` the activation factor was inactive: 1.1. For `CCC(CO)(C(=O)OC1CN2CCC1CC2)c1ccccc1` (stereo not given), the activation factor was inactive: 1.
